# According to patent US20260384438A1, “PYRROLOPYRIMIDINE CARBOXAMIDES” (published 2026):
# By UniProt entry, the sequences of proteins in these tests, tags left out. Residues count along the entry.
# UniProt Q99640, whole entry: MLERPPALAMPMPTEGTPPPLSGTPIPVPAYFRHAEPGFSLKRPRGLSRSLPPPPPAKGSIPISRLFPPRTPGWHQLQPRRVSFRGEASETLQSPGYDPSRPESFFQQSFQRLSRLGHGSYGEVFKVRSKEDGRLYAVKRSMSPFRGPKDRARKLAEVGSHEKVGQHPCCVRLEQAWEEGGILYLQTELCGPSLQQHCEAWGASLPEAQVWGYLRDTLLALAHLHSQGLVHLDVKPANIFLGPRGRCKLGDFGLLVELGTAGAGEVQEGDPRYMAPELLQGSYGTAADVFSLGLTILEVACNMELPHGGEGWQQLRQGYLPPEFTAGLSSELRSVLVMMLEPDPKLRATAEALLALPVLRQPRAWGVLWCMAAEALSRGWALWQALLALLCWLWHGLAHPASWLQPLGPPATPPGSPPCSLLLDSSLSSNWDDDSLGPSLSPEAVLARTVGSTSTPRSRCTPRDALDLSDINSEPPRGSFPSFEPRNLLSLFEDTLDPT
# UniProt P54753, 34-998 limits assumed: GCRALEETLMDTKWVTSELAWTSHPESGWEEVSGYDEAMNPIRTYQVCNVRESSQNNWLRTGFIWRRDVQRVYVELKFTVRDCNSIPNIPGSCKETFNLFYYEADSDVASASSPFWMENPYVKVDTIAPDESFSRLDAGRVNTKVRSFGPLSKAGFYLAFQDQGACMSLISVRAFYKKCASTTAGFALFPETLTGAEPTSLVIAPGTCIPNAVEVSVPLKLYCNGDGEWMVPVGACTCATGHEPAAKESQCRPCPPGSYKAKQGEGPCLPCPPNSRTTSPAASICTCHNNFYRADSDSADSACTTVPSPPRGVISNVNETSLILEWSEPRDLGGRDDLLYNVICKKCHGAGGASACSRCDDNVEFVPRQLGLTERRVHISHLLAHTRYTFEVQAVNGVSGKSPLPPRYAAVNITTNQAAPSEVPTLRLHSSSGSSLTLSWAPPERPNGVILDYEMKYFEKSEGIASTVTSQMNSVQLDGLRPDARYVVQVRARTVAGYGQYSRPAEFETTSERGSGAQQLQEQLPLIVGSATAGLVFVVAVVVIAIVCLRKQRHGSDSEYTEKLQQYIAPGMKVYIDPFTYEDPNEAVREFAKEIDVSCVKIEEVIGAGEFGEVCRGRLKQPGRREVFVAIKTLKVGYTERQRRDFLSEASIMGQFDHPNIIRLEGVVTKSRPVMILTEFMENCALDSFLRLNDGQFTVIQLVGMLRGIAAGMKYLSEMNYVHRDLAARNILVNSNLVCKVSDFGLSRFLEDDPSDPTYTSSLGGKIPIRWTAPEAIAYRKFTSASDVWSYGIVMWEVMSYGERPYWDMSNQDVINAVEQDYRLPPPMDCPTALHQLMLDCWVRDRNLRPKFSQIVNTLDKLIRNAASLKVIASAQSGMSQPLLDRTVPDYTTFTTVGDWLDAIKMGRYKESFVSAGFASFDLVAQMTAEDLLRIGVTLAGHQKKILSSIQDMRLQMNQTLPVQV
# UniProt P30291, whole entry: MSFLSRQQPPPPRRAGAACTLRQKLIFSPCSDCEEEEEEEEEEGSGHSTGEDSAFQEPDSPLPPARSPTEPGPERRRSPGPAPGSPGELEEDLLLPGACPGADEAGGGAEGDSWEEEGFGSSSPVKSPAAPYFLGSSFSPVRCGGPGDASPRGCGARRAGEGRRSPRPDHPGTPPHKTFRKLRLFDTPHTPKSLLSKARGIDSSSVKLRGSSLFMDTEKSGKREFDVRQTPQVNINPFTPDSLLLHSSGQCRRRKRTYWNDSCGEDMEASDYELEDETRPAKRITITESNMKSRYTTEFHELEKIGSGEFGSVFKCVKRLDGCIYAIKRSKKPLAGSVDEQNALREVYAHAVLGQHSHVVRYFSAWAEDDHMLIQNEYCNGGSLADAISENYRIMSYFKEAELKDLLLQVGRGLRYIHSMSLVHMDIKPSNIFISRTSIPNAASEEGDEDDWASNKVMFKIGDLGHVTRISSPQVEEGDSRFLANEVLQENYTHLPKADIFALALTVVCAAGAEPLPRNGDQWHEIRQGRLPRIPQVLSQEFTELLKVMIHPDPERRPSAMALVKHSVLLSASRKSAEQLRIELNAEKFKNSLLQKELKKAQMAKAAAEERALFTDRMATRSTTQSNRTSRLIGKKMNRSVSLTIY
# Columns and labels:
# [1] = target: PKMYT1 (Homo sapiens, UniProt Q99640); test: NanoBRET target engagement in HEK293T cells, PKMYT1; conditions: read-out: PKMYT1 INHIBITION IC50, 2 h
# [2] = Aqueous (thermodynamic) solubility, pH 7.4; conditions: 0.1 M phosphate buffer pH 7.4, 24 h, 25 °C
# [3] = target: EPHB3 (Homo sapiens, UniProt P54753); test: NanoBRET target engagement in HEK293T cells, EPHB3; conditions: read-out: EPHB3 INHIBITION IC50, 2 h
# [4] = target: WEE1 (Homo sapiens, UniProt P30291); test: NanoBRET target engagement in HEK293T cells, WEE1; conditions: read-out: WEE1 INHIBITION IC50, 2 h
# [5] = Metabolic stability in human liver microsomes (HLM); conditions: human liver microsomes 1 mg/mL, 1 μM
# [6] = target: CDK1 pThr14 (PKMYT1 substrate), FUOV-1 cells (Homo sapiens, UniProt Q99640); test: Functional CDK1 pThr14 AlphaLISA assay in FUOV-1 cells; conditions: read-out: pCDk1(Thr14) INHIBITION IC50, 2 h
# [7] = test system: OVCAR3 cells; test: Cellular proliferation (Hoechst staining), OVCAR3; conditions: read-out: OVCAR3 GI50; CCNE1-amplified, 4 days
# [8] = Log D octanol/PBS pH 7.4; conditions: octanol/PBS pH 7.4, 1 μM
# [9] = test system: SKOV3 cells; test: Cellular proliferation (Hoechst staining), SKOV3; conditions: read-out: SKOV3 GI50; CCNE1-nonamplified, 4 days
# [10] = Caco-2 cell permeability; conditions: 10 μM; for Caco-2 A-B Papp: 2 h, 37 °C; for Caco-2 EFFLUX RATIO: Papp(B to A)/Papp(A to B)
SMILES,IC50 [1] [µM],Solubility pH 7.4 [2] [μM],IC50 [3] [µM],IC50 [4] [µM],HLM (CLint) [5] [µL/min/mg],IC50 [6] [µM],GI50 [7] [µM],LogD [8],GI50 [9] [µM],Caco-2 A-B Papp [10],Caco-2 EFFLUX RATIO [10]
CCc1ncc2c(n1)c(-c1cc(O)ccc1C)c(N)n2C(N)=O (racemic),0.023,>1000,1.86,> 9.97,10.055,0.187,13.5,1.9,> 30,–,–
COc1ncc2c(C(N)=O)c(N)n(-c3c(C)ccc(O)c3C)c2n1 (racemic),0.033,>1000,0.619,> 9.97,7.340,0.326,4.4,1.5,15.6,–,–
Cc1ccc(O)c(C)c1-n1c(N)c(C(N)=O)c2cnc(-c3c(C)noc3C)nc21 (racemic),0.022,218,1.33,> 9.97,43.700,0.431,2.21,2.6,8,–,–
Cc1ccc(O)c(C)c1-n1c(N)c(C(N)=O)c2cnc(-c3ccn(C)n3)nc21 (racemic),0.226,62,3.84,> 9.97,4.110,0.519,12.2,1.4,> 30,–,–
Cc1ccc(O)c(C)c1-n1c(N)c(C(N)=O)c2cnc(-c3ccnn3C)nc21 (racemic),0.03,977,0.405,> 9.97,14.900,0.874,8.05,2.2,> 30,–,–
Cc1ccc(O)c(C)c1-n1c(N)c(C(N)=O)c2cnc(-c3cn[nH]c3)nc21 (racemic),0.031,>1000,1.85,> 9.97,16.800,0.331,11.1,1.8,> 30,–,–
Cc1ccc(O)c(C)c1-n1c(N)c(C(N)=O)c2cnc(-c3cnc4n3CCC4)nc21 (racemic),0.054,30,1.54,> 9.97,16.900,0.38,9.82,2.2,> 30,–,–
Cc1ccc(O)c(C)c1-n1c(N)c(C(N)=O)c2cnc(-c3cncn3C)nc21 (racemic),0.132,935,0.589,> 9.97,10.900,2.02,14.2,1.8,> 30,–,–
Cc1ccc(O)c(C)c1-n1c(N)c(C(N)=O)c2cnc(-c3cnn(C)c3)nc21 (racemic),0.074,>1000,0.643,> 9.97,6.070,1.09,10.8,1.8,> 30,–,–
Cc1ccc(O)c(C)c1-n1c(N)c(C(N)=O)c2cnc(-c3cnn4c3CCCC4)nc21 (racemic),0.015,130,0.31,5.28,43.000,0.243,2.07,2.6,9.72,–,–
Cc1ccc(O)c(C)c1-n1c(N)c(C(N)=O)c2cnc(C(C)C)nc21 (racemic),0.023,>1000,0.984,> 9.97,47.123,0.317,10.4,2.49,> 21.5,–,–
Cc1ccc(O)c(C)c1-n1c(N)c(C(N)=O)c2cnc(C3CC3)nc21 (racemic),0.016,>1000,0.346,> 9.97,24.062,0.273,8.62,2.35,10.3,–,–
Cc1nc(C)c(-c2ncc3c(C(N)=O)c(N)n(-c4c(C)ccc(O)c4C)c3n2)o1 (racemic),0.025,31,1.81,> 9.97,12.000,0.342,3.83,2.5,27.7,–,–
"Cc1ccc(O)c(C)c1-n1c(N)c(C(N)=O)c2cnc(N3CCOCC3)nc21 (single isomer, unassigned) [47, Isomer 1]",0.016,–,0.054,> 9.97,14.288,0.328,3.4,–,15.7,17.626 1E−6.cm/s,13.4
"Cc1ccc(O)c(C)c1-n1c(N)c(C(N)=O)c2cnc(N3CCOCC3)nc21 (single isomer, unassigned) [47, Isomer 2]",1.04,–,6.88,> 9.97,15.138,> 9.91,> 30,–,> 30,16.855 1E−6.cm/s,14.6
"Cc1cc2c(cn1)c(C(N)=O)c(N)n2-c1c(C)ccc(O)c1C (single isomer, unassigned) [52, Isomer 1]",0.031,–,0.727,> 10,<3.000,0.641,28.7,–,> 30,9.952 1E−6.cm/s,3.4
"Cc1cc2c(cn1)c(C(N)=O)c(N)n2-c1c(C)ccc(O)c1C (single isomer, unassigned) [52, Isomer 2]",0.369,–,7.29,> 10,<3.000,> 9.91,> 30,–,> 30,–,–
"Cc1ccc(O)c(C)c1-n1c(N)c(C(N)=O)c2cn(C)c(=O)cc21 (single isomer, unassigned) [56, Isomer 1]",0.675,–,2.71,> 9.97,<3.000,1.42,14.9,–,> 30,0.772 1E−6.cm/s,9.91
"Cc1ccc(O)c(C)c1-n1c(N)c(C(N)=O)c2cn(C)c(=O)cc21 (single isomer, unassigned) [56, Isomer 2]",> 9.97,–,> 9.97,> 9.97,<3.000,> 9.91,> 30,–,> 30,–,–
"Cc1ccc(O)c(C)c1-n1c(N)c(C(N)=O)c2cnc(Cl)nc21 (single isomer, unassigned) [57, Isomer 1]",1.02,–,> 9.97,> 9.97,8.110,–,> 30,–,22.6,11.695 1E−6.cm/s,5.52
"Cc1ccc(O)c(C)c1-n1c(N)c(C(N)=O)c2cnc(C(F)(F)F)nc21 (single isomer, unassigned) [62, Isomer 1]",> 9.97,–,> 9.97,> 9.97,23.800,> 9.91,29.3,–,> 30,–,–
"Cc1ccc(O)c(C)c1-n1c(N)c(C(N)=O)c2cnc(C(F)(F)F)nc21 (single isomer, unassigned) [62, Isomer 2]",0.014,–,1.01,> 9.97,33.100,0.421,14.2,–,> 30,–,–
"Cc1ccc(O)c(C)c1-n1c(N)c(C(N)=O)c2cnc(N3CCN(C)CC3)nc21 (single isomer, unassigned) [70, Isomer 2]",1.21,–,> 9.97,> 9.97,17.436,> 9.91,> 30,–,> 30,–,–
"CCn1cc2c(C(N)=O)c(N)n(-c3c(C)ccc(O)c3C)c2nc1=O (single isomer, unassigned) [79, Isomer 2]",> 9.97,–,> 9.97,> 9.97,<3.000,> 9.91,> 30,–,> 30,–,–
"Cc1ncc2c(C(N)=O)c(N)n(-c3c(Br)ccc(O)c3C)c2n1 (single isomer, unassigned) [86, Isomer 1]",0.562,–,> 9.97,> 9.97,<3.000,5.75,> 30,–,> 30,–,–
"Cc1ncc2c(C(N)=O)c(N)n(-c3c(Br)ccc(O)c3C)c2n1 (single isomer, unassigned) [86, Isomer 2]",0.025,–,5.79,7.04,4.611,0.334,3.26,–,17.1,–,–
